Values after ≈ are worked out from the molar mass of the structure shown.
Columns and labels:
Pseudomonas aeruginosa [1] = experiment: Antibacterial activity against multidrug-resistant Pseudomonas aeruginosa CCARM 2095 assessed as reduction in bacterial growth incubated for 18 hrs by spectrophotometry based microtiter broth dilution method; assay type: functional; conditions: CCARM 2095, 18 h
Pseudomonas aeruginosa [2] = experiment: Antibacterial activity against multidrug-resistant Pseudomonas aeruginosa CCARM 2109 assessed as reduction in bacterial growth incubated for 18 hrs by spectrophotometry based microtiter broth dilution method; assay type: functional; conditions: CCARM 2109, 18 h
Escherichia coli = experiment: Antibacterial activity against Escherichia coli KCTC 1682 assessed as reduction in bacterial growth incubated for 18 hrs by spectrophotometry based microtiter broth dilution method; assay type: functional; conditions: KCTC 1682, 18 h
Salmonella typhimurium = experiment: Antibacterial activity against Salmonella typhimurium KCTC 1926 assessed as reduction in bacterial growth incubated for 18 hrs by spectrophotometry based microtiter broth dilution method; assay type: functional, Salmonella enterica subsp. enterica serovar Typhimurium; conditions: Salmonella enterica, KCTC 1926, 18 h
Bacillus subtilis = experiment: Antibacterial activity against Bacillus subtilis KCTC 3068 assessed as reduction in bacterial growth incubated for 18 hrs by spectrophotometry based microtiter broth dilution method; assay type: functional; conditions: KCTC 3068, 18 h
Pseudomonas aeruginosa [3] = experiment: Antibacterial activity against Pseudomonas aeruginosa KCTC 1637 assessed as reduction in bacterial growth incubated for 18 hrs by spectrophotometry based microtiter broth dilution method; assay type: functional; conditions: KCTC 1637, 18 h
Staphylococcus aureus [4] = experiment: Antibacterial activity against methicillin-resistant Staphylococcus aureus CCARM 3089 assessed as reduction in bacterial growth incubated for 18 hrs by spectrophotometry based microtiter broth dilution method; assay type: functional; conditions: CCARM 3089, 18 h
Staphylococcus aureus [5] = experiment: Antibacterial activity against methicillin-resistant Staphylococcus aureus CCARM 3090 assessed as reduction in bacterial growth incubated for 18 hrs by spectrophotometry based microtiter broth dilution method; assay type: functional; conditions: CCARM 3090, 18 h
Staphylococcus aureus [6] = experiment: Antibacterial activity against Staphylococcus aureus KCTC 1621 assessed as reduction in bacterial growth incubated for 18 hrs by spectrophotometry based microtiter broth dilution method; assay type: functional; conditions: KCTC 1621, 18 h
Staphylococcus aureus [7] = experiment: Antibacterial activity against methicillin-resistant Staphylococcus aureus CCARM 3095 assessed as reduction in bacterial growth incubated for 18 hrs by spectrophotometry based microtiter broth dilution method; assay type: functional; conditions: CCARM 3095, 18 h
[8] = test system: Staphylococcus epidermidis; experiment: Antibacterial activity against Staphylococcus epidermidis KCTC 1917 assessed as reduction in bacterial growth incubated for 18 hrs by spectrophotometry based microtiter broth dilution method; assay type: functional; conditions: KCTC 1917, 18 h

## CC[C@H](C)[C@H](NC(=O)CN)C(=O)NCC(=O)N[C@@H](C)C(=O)N[C@H](C(=O)N[C@@H](CC(C)C)C(=O)N[C@@H](CCCCN)C(=O)N[C@H](C(=O)N[C@@H](CC(C)C)C(=O)N[C@H](C(=O)N[C@H](C(=O)NCC(=O)N[C@@H](CC(C)C)C(=O)N1CCC[C@H]1C(=O)N[C@@H](C)C(=O)N[C@@H](CC(C)C)C(=O)N[C@H](C(=O)N[C@@H](CO)C(=O)N[C@@H](Cc1c[nH]c2ccccc12)C(=O)N[C@H](C(=O)N[C@@H](CCCCN)C(=O)N[C@@H](CCCNC(=N)N)C(=O)N[C@@H](CCCCN)C(=O)N[C@@H](CCCNC(=N)N)C(=O)N[C@@H](CCC(N)=O)C(=O)N[C@@H](CCC(N)=O)C(N)=O)[C@@H](C)CC)[C@@H](C)CC)[C@@H](C)O)[C@@H](C)O)C(C)C)C(C)C [MELITTIN]
Pseudomonas aeruginosa [1]
  MIC: 8 µM (≈ 22.8 µg/mL)
Pseudomonas aeruginosa [2]
  MIC: 8 µM (≈ 22.8 µg/mL)
Escherichia coli
  MIC: 4 µM (≈ 11.4 µg/mL)
Salmonella typhimurium
  MIC: 2 µM (≈ 5.69 µg/mL)
Bacillus subtilis
  MIC: 1 µM (≈ 2.85 µg/mL)
Pseudomonas aeruginosa [3]
  MIC: 2 µM (≈ 5.69 µg/mL)
Staphylococcus aureus [4]
  MIC: 4 µM (≈ 11.4 µg/mL)
Staphylococcus aureus [5]
  MIC: 16 µM (≈ 45.5 µg/mL)
Staphylococcus aureus [6]
  MIC: 2 µM (≈ 5.69 µg/mL)
Staphylococcus aureus [7]
  MIC: 4 µM (≈ 11.4 µg/mL)
[8]
  MIC: 4 µM (≈ 11.4 µg/mL)
